Assay results: ChEMBL document CHEMBL1127372, “The discovery and structure-activity relationships of 1,2,3,6-tetrahydro-4-phenyl-1-[(arylcyclohexenyl)alkyl]pyridines. Dopamine autoreceptor agonists and potential antipsychotic agents” (J Med Chem, 1994)

Sequences of proteins named here, by UniProt entry; tags and fusion partners are left off.
UniProt P61169, whole entry: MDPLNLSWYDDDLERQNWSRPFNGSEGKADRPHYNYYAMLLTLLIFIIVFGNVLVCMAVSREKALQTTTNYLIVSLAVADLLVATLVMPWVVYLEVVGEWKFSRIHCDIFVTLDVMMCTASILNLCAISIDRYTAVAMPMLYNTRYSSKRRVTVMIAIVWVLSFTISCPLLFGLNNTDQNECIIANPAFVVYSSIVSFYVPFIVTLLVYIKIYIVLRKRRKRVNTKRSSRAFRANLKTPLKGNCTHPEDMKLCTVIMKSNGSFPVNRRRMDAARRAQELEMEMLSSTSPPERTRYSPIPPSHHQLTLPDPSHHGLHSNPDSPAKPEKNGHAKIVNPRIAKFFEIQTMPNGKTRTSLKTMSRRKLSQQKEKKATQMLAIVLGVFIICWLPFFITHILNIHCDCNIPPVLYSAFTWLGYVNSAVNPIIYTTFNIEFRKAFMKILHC

Target: D(2) dopamine receptor (Rattus norvegicus, UniProt P61169)
Assay: Tested for binding affinity towards rat striatal D2 receptor using [3H]NPA as radioligand

Question: `CN1CCc2cccc3c2[C@H]1Cc1ccc(O)c(O)c1-3` [APOMORPHINE] was tested. Which Ki did it give?
Answer: The Ki was 2.2 nM.
